Assays:
[1] = target: T1, Tripartite terminase subunit 3 (Human betaherpesvirus 5) (UniProt P16732); details: dose 20.0 µM
T1 sequence (whole entry): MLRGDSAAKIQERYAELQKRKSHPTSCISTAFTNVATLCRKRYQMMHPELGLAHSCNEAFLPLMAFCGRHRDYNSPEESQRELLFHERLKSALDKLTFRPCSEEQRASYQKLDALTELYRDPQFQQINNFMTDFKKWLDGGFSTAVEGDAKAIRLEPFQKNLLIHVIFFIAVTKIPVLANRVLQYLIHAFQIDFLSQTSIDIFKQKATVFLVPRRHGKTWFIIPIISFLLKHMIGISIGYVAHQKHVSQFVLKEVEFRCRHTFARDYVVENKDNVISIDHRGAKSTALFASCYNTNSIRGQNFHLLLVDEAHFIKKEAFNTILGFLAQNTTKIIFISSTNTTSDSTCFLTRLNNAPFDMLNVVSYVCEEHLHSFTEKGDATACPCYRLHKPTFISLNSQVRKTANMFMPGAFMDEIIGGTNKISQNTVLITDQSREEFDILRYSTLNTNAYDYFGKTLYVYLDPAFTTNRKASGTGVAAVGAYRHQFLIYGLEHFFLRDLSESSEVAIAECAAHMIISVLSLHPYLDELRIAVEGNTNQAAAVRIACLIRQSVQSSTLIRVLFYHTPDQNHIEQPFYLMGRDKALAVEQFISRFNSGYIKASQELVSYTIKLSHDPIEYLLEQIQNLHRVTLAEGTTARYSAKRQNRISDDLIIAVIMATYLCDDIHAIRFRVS

[2] = target: T1, Tripartite terminase subunit 3 (Human betaherpesvirus 5); experiment: Inhibition of human cytomegalovirus pUL89 endonuclease activity using 60 bp dsDNA substrate at 20 uM incubated for 30 mins by ELISA-based biochemical assay relative to control

SMILES: Cn1c(Sc2ccc(Br)cc2)cc(=O)n(O)c1=O
- ΔTm [1]: 33 °C

SMILES: Cn1c(Sc2cccc(C(F)(F)F)c2)cc(=O)n(O)c1=O
- inhibition [2]: 35%

SMILES: Cn1c(Sc2cccc3ccccc23)cc(=O)n(O)c1=O
- inhibition [2]: 68%

SMILES: O=c1cc(Sc2cccc(-c3ccc(Cl)cc3)c2)[nH]c(=O)n1O
- inhibition [2]: 30%

SMILES: Cn1c(Sc2ccc(Cl)cc2)cc(=O)n(O)c1=O
- inhibition [2]: 60%

SMILES: COc1ccc(-c2ccc(Sc3cc(=O)n(O)c(=O)[nH]3)cc2)cc1
- ΔTm [1]: 0.55 °C

SMILES: Cn1c(Sc2ccc(C(F)(F)F)cc2)cc(=O)n(O)c1=O
- inhibition [2]: 33%

SMILES: CCc1ccccc1Sc1cc(=O)n(O)c(=O)n1C
- inhibition [2]: 67%

SMILES: COc1cccc(Sc2cc(=O)n(O)c(=O)n2C)c1
- inhibition [2]: 46%

SMILES: Cn1c(Sc2cccc(Cl)c2)cc(=O)n(O)c1=O
- ΔTm [1]: 29 °C
